Legend:
[1] = target: T1, μ opioid receptor (Rattus norvegicus, UniProt P33535); conditions: U293-μ, 10 μM forskolin
[2] = target: T1, μ opioid receptor; experiment: Receptor recycling through endocytic vesicles; assay type: cell-based; set-up: expressed in transfected cells
[3] = system: D2 receptor (long splice isoform); experiment: D2 receptor cAMP assay in stably transfected HEK293 cells; assay type: cell-based; conditions: quinpirole pretreatment and washing
[4] = system: muscarinic m1 receptor mutant m1-E360A; assay type: cell-based

Sequences of proteins named here, by UniProt entry; tags and fusion partners are left off.
UniProt P33535, whole entry: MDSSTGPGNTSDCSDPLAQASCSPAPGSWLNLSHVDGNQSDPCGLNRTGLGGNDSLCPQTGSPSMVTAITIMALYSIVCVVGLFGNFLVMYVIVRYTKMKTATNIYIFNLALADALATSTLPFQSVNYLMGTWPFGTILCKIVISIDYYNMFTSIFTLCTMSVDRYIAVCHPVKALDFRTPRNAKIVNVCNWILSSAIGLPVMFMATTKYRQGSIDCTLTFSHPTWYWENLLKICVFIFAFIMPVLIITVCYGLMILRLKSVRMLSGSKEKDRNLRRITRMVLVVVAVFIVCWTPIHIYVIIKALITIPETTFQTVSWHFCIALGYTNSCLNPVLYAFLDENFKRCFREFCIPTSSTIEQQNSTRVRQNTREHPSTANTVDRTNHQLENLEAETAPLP

CN1CC[C@]23c4c5ccc(O)c4O[C@H]2[C@@H](O)C=C[C@H]3[C@H]1C5 [morphine]
spontaneous cAMP overshoot after morphine pretreatment [1]: measurable spontaneous cAMP overshoot
receptor recycling through endocytic vesicles [2]: but not morphine

CCCN1CCC[C@@H]2Cc3n[nH]cc3C[C@H]21 [quinpirole]
spontaneous and negative antagonist induced cAMP overshoots after pretreatment [3]: Spontaneous and negative antagonist induced cAMP overshoots were observed

C[N+](C)(C)CCOC(N)=O [carbochol]
effect on m1-E360A basal activity [4]: enhanced the basal activity
